Reference: patent publication US6689302B2, “Method of making an antimicrobial tympanostomy tube” (Medtronic Xomed, Inc., priority 1993, dated 2004)

Test system: round window membrane in the ear of guinea pigs
Test: Otologic tissue compatibility, samples placed on round window membrane
Details: guinea pig ear

silver oxide [100% silver oxide powder]
otologic tissue compatibility (irritation or inflammation): hair cell losses and adhesions
